# Compound activity from PubChem BioAssay.
# Rango-impB inh – Rango-importin beta binding inhibition; Q14974; Rango CFP/YFP FRET sensor + importin beta, 45 min; Potency, µM (highest dose often 92.2 µM), for inactives: at the top dose inhibition of complex formation; 340,000 tested, 0.031% active;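 note: potency is the fitted concentration of half-maximal effect; 0% = DMSO wells and 100% = buffer wells lacking importin beta; nearly all actives have a fitted effect of over 15% in size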
#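 Inhibition scored from the CFP 486 nm/YFP 530 nm FRET ratio 45 min after adding 0.125 microM importin beta to 50 nM Rango biosensor preincubated 5 min with compound (room temperature, PBS with DTT, Tween-20, BSA). No-importin wells as positive control.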
# MBNL1-CUG inh – MBNL1-poly(CUG) RNA binding inhibition; 280,000 tested, 0.036% active; Potency, µM (highest dose often 57.5 µM), without a hit: at the top dose activity change, negative = inhibition, hits mostly inhibitors; Q9NR56; TR-FRET MBNL1-His/biotin-(CUG)12 binding, 665/545 ratio; AID 2675; active = well fitted inhibition curve with a large enough effect in the signal ratio, with a control signal flat, not every such curve was filed as active; inconclusive = small, poorly fitted or top-dose-only effect, or effect the other way, or a change in a side signal; inactive = no such curve, though single readings can be large or run the other way; the % refers to the signal ratio; note: potency is the fitted concentration of half-maximal effect; % is set by controls: 0 for no effect and ±100 for the full control effect
#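 His-tagged MBNL1 binding to biotinylated (CUG)12 RNA was measured by TR-FRET using terbium anti-His antibody (0.055 ng/ul final) and streptavidin-XL665 (5 nM final). Compounds were titrated 92 nM to 58 uM; 60 min at room temperature.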
# CBFb RUNX1 block – CBF-beta/RUNX1 interaction disruption; 230,000 tested, under 10 active; AlphaScreen CBFb-His/RUNX1-biotin binding, biochemical; Potency, µM (doses to about 59.8 µM), without a hit: at the highest dose activity, negative = inhibition, most hits filed as inhibitors; active = well fitted curve in the direction sought with a large enough effect; inconclusive = small, poorly fitted or top-dose-only effect, or effect the other way, or another doubt; inactive = no such curve, though single readings can be large or run the other way; note: % of control where 0% means no effect
#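 Proteins preincubated together for 20 min at RT before compound addition; 15 min later, nickel and streptavidin beads were added and left 90 min prior to AlphaScreen measurement.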
# Rango release inh – inhibitors of RanGTP-induced Rango-importin beta complex dissociation; Biochemical FRET Rango-importin beta, RanGTP-induced dissociation; Potency, µM (doses to about 46.1 µM), inactives show top-dose activity change, negative = inhibition; 340,000 tested, 0.071% active; AID 540253; note: potency is the fitted concentration of half-maximal effect; % of control where 0% means no effect; nearly all actives have a fitted effect of over 45% in size
#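 Quantitative HTS using a FRET biosensor: 0.1 uM Rango, 0.25 uM importin beta, 0.6 uM Ran, 2 mM GTP, 0.2 uM RCC1 final, PBS with DTT, Tween-20 and BSA. Post-read taken 45 min after Ran addition.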
# ClpP mod – qHTS Assay for Activators of ClpP; ATP-dependent Clp protease proteolytic subunit (Bacillus subtilis (strain 168)), P80244; purified B. subtilis ClpP, FRET peptide cleavage, 20 min; Potency, µM (titrated, usually from 57.5 µM), for the others: at the highest dose activity change, negative = active; 340,000 tested, 1.9% active; active = well fitted falling curve with a large enough effect; inconclusive = small, poorly fitted or top-dose-only effect; inactive = no such curve, though single readings can be large or run the other way; note: potency is the fitted concentration of half-maximal effect; the source files actives as falling curves though it sought activators and does not explain the sign; nearly all actives have a fitted effect of over 65% in size
#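 ClpP 10 microg/mL final, pH 8 Tris/KCl buffer with BSA, glycerol, Tween-20; compound pinned in; FRET-FV substrate; RT 20 min; Ex320/Em430; ΔFRET vs ADEP 5.8 microM, DMSO, no enzyme.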
# Numbers without * were called inactive; ? = inconclusive; · = not tested or not shown; [ ] = remark or other dose. This is one part of a sample in which hits are shown more often than they occur. Unless noted, calls come from the whole dose curve.
SMILES,Rango-impB inh,MBNL1-CUG inh,CBFb RUNX1 block,Rango release inh,ClpP mod
CCOC(=O)CSc1nc2cc(OC)c(OC)cc2cc1C#N,·,·,·,·,31.6µM*
Cc1ccc(S(=O)(=O)N2CCN(c3nc(-c4ccc(CN5CCOCC5)s4)nc4ccccc34)CC2)cc1,·,·,·,·,4.4%
COCCNc1ccc(-c2nc(-c3ccccn3)no2)cc1[N+](=O)[O-],·,·,·,·,2.1%
CCN(CCCNC(=O)c1cc2c(=O)[nH]c3ccc(C)cc3c2s1)Cc1ccccc1,·,·,·,·,14.1µM*
NC(=S)c1cc2cc(Cl)ccc2oc1=O,25.9µM*,?,6.8%,10.4%,·
C=CCn1c(O)c(N=NC(=S)Nc2cccc(OC)c2)c2ccccc21,0.5%,?,·,9.7%,0.9%
C=CCn1c(O)c(N=NC(=S)Nc2ccc(OC)cc2)c2ccccc21,0.5%,?,·,21.3%,22.4µM*
Cc1ccc(C)c(Oc2cc(F)nc(N)n2)c1,0.6%,-1.5%,·,4.4%,17.8µM*
O=C(NCCc1nc2ccccc2n1CCOc1ccccc1)C1CCCCC1,·,·,·,·,-3.3%
COc1ccc(O[C@H]2C=C[C@@H](c3ccccc3)O[C@H]2COC(=O)CC/C(C)=N/OCC[C@@H]2C=C[C@H](OC(C)=O)[C@H](COC(C)=O)O2)cc1,·,·,8.3%[13.1 µM],·,·
CCOC(=O)c1c(C)nc2c(c(SC)nn2-c2ccccc2)c1N,-1.4%,-2.1%,-2.9%,9.0%,25.1µM*
CCOC(=O)CCc1c(C)nc2c(c(C)nn2-c2ccccc2)c1C,1.3%,26.8%,·,-1.3%,3.8%
CCOC(=O)c1nn(-c2ccccc2)c(C(=O)OCC)c1N,-5.2%,6.6%,8.5%,0.7%,2µM*
O=C(COc1cccc2ccccc12)NNC(=O)c1cccs1,-5.0%,9.9%,2.2%,19.9%,17.8µM*
O=C(COc1ccc2ccccc2c1)NNC(=O)c1cccs1,-1.1%,·,0.4%,-5.0%,-1.1%
Cc1ccc(NC(=O)Cn2cc(S(=O)(=O)N3CCCC3)c(S(=O)(=O)N3CCCC3)c2)cc1C,·,·,·,·,-0.9%
O=C(NC1CCS(=O)(=O)C1)c1ccc(Br)o1 (stereo unspecified),1.3%,-4.0%,·,0.6%,·
O=C(NC12CC3CC(CC(C3)C1)C2)c1ccc(-c2ccc(Br)cc2)o1,-0.1%,22.0%,3.0%,3.8%,31.6µM*
O=C(NC1CCS(=O)(=O)C1)c1ccc(-c2ccc(Br)cc2)o1 (stereo unspecified),6.0%,?,-2.8%,0.7%,15.8µM*
Cc1ccc2c(c1)C/C(=C/c1ccc(N(C)C)cc1)C2=O,·,·,·,·,-0.2%

# Profiles as entered above. Values in the order: Rango-impB inh, MBNL1-CUG inh, CBFb RUNX1 block, Rango release inh, ClpP mod
# O=C(COc1cccc2ccccc12)NNC(=O)c1cccs1 as listed: -5.0%, 9.9%, 2.2%, 19.9%, 17.8µM*
# O=C(NC1CCS(=O)(=O)C1)c1ccc(-c2ccc(Br)cc2)o1 (stereo unspecified) as listed: 6.0%, ?, -2.8%, 0.7%, 15.8µM*

# Gathered by group: those above with a furan ring, fused or not (three)
SMILES,Rango-impB inh,MBNL1-CUG inh,CBFb RUNX1 block,Rango release inh,ClpP mod
O=C(NC1CCS(=O)(=O)C1)c1ccc(Br)o1 (stereo unspecified),1.3%,-4.0%,·,0.6%,·
O=C(NC12CC3CC(CC(C3)C1)C2)c1ccc(-c2ccc(Br)cc2)o1,-0.1%,22.0%,3.0%,3.8%,31.6µM*
O=C(NC1CCS(=O)(=O)C1)c1ccc(-c2ccc(Br)cc2)o1 (stereo unspecified),6.0%,?,-2.8%,0.7%,15.8µM*

# Next part
SMILES,Rango-impB inh,MBNL1-CUG inh,CBFb RUNX1 block,Rango release inh,ClpP mod
CN(C)c1ccc(C(=O)Nc2sc(Nc3ccccc3)nc2C(N)=O)cc1,·,·,·,·,4.3%
Nc1nc(Br)c2c(F)cccc2c1-c1ccc(Cl)cc1,0.0%,13.6%,12.1%,4.2%,-5.9%
Nc1nc(Br)c2ccccc2c1-c1ccccc1,?,40.6%,?,13µM*,·
COc1ccc(NC(=O)N(Cc2cc3cc(C)ccc3[nH]c2=O)CC2CCCO2)cc1 (stereo unspecified),0.4%,-2.7%,3.1%,1.5%,-17.8%
COc1ccc2[nH]c(=O)c(CN(CC3CCCO3)C(=O)Nc3ccc(F)cc3)cc2c1 (stereo unspecified),-1.5%,-3.2%,6.2%,3.1%,15.8µM*
COc1ccc2[nH]c(=O)c(CN(C(=O)C3CCCO3)c3ccc(C)cc3)cc2c1 (stereo unspecified),-0.8%,-0.6%,3.5%,0.6%,28.2µM*
COc1cccc(C(=O)N(Cc2ccccc2)Cc2cc3cc4c(cc3[nH]c2=O)OCCO4)c1,2.6%,12.8%,2.5%,11.0%,28.2µM*
COc1cccc(C(=O)N(Cc2cc3cc(C)ccc3[nH]c2=O)CC2CCCO2)c1 (stereo unspecified),3.0%,-4.2%,-0.1%,-6.0%,31.6µM*
Cc1ccn2c(NC3CCCCC3)c(-c3ccc(C)o3)nc2c1,·,·,·,·,-20.0%
COc1ccc(N2CCN(C(=O)c3cn(C4CCCCC4)c(=O)c4c3c3ccccc3n4C)CC2)cc1,·,·,·,·,-28.1%
